The values that follow come from ChEMBL document CHEMBL3297656, “New coumarin derivatives: design, synthesis and use as inhibitors of hMAO” (Bioorg Med Chem, 2014).

Amino acid sequences for entries named in this document (tags omitted).
UniProt P27338, whole entry: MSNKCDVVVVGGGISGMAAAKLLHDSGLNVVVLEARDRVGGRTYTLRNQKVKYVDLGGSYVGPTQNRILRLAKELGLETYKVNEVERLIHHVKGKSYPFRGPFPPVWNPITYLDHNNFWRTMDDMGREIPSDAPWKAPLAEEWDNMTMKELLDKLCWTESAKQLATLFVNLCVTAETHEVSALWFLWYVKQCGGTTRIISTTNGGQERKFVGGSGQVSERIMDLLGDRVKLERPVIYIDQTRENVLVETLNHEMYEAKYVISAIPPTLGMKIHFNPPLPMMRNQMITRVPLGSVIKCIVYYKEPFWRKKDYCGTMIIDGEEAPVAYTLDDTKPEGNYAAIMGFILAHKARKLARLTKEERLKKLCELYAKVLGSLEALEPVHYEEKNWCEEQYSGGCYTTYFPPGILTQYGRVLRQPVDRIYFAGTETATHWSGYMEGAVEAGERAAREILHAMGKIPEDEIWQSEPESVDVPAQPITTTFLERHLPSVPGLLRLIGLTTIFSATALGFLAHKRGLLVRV

The assay deals with Amine oxidase [flavin-containing] B (Homo sapiens, UniProt P27338). As to the kind of experiment: Inhibition of human recombinant MAO-B assessed as H2O2 production using p-tyramine substrate by fluorimetric method.

The structures appear in SMILES notation.

By IC50 is commonly meant the concentration needed to halve the response being measured.

Turning to `CC(C)NC(=O)c1cc2ccccc2oc1=O`, the IC50 came to 10.5 µM.
